# Results from patent US9676793B2, “Co-crystals of 5-amino-2-oxothiazolo[4,5-d]pyrimidin-3(2H)-yl-5-hydroxymethyl tetrahydrofuran-3-yl acetate and methods for preparing and using the same” (Hoffmann-La Roche Inc., priority 2014, dated 2017).
# Where two headings read alike, the source gives them in different places.
# System: HBV
# Details: for EC50: HBV infected HepaRG cell assay
Substance,"% inhibition ± SD, HBV DNA (n = 4) (55.6 pM)","% inhibition ± SD, HBsAg (n = 4) (55.6 pM)","% inhibition ± SD, HBV DNA (n = 4) (166.7 pM)","% inhibition ± SD, HBsAg (n = 4) (166.7 pM)","% inhibition ± SD, HBV DNA (n = 4) (500 pM)","% inhibition ± SD, HBsAg (n = 4) (500 pM)",EC50 (read-out: EC50 against HBV DNA secretion),EC50 (read-out: EC50 against secretion of HBsAg)
"Pegasys: pegylated interferon-alpha 2a, positive control [reference compound]",56.5 ± 17.2 % inhibition,25.9 ± 4.2 % inhibition,67.1 ± 20.3 % inhibition,33.1 ± 10.3 % inhibition,76.9 % inhibition,46.0 % inhibition,,
Roferon-A: IFN-alpha 2a [reference compound],,,,,,,0.001 ± 0.0003 nM,0.033 ± 0.022 nM
